These results are taken from ChEMBL document CHEMBL4145549, “Potholing of the hydrophobic heme oxygenase-1 western region for the search of potent and selective imidazole-based inhibitors” (Eur J Med Chem, 2018).

Bounds are passed on as bounds.

The species entered for this assay is Rattus norvegicus. Description: Selectivity index, ratio of IC50 for HO-2 in Sprague-Dawley albino rat brain microsomes to IC50 for HO-1 in Sprague-Dawley albino rat spleen microsomes.

For the compound `c1ccc(CCC2(Cn3ccnc3)OCCO2)cc1`, the Ratio IC50 is over 143.
